# Key:
# Protein sequences, listed by entry. Tags and fused reporters are not part of them. Residues count along the entry.
# UniProt Q08345, 19-913: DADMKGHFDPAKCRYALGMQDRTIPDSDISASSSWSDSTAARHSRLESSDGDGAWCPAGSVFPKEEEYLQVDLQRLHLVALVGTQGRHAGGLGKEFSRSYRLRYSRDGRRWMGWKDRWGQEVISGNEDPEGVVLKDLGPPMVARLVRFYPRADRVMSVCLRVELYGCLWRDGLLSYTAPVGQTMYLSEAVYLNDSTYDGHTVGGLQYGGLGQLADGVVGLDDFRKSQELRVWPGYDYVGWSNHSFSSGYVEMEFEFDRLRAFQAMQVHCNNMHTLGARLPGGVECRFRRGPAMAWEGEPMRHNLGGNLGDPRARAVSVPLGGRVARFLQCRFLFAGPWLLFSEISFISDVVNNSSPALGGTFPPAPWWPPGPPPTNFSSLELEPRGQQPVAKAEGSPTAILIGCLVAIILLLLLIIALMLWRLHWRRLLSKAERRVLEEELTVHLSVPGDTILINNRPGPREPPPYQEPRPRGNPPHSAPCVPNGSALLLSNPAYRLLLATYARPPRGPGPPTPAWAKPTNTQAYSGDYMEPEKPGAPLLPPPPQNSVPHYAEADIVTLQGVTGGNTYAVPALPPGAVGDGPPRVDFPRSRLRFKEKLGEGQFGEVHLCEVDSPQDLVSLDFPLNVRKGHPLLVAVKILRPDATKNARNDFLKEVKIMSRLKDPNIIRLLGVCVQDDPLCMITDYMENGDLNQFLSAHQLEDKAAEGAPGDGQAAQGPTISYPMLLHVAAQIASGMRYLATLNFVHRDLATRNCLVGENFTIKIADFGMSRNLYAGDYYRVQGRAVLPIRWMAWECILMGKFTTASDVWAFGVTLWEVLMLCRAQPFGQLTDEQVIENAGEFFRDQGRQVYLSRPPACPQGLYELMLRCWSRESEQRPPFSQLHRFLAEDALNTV
# UniProt P42684, whole entry: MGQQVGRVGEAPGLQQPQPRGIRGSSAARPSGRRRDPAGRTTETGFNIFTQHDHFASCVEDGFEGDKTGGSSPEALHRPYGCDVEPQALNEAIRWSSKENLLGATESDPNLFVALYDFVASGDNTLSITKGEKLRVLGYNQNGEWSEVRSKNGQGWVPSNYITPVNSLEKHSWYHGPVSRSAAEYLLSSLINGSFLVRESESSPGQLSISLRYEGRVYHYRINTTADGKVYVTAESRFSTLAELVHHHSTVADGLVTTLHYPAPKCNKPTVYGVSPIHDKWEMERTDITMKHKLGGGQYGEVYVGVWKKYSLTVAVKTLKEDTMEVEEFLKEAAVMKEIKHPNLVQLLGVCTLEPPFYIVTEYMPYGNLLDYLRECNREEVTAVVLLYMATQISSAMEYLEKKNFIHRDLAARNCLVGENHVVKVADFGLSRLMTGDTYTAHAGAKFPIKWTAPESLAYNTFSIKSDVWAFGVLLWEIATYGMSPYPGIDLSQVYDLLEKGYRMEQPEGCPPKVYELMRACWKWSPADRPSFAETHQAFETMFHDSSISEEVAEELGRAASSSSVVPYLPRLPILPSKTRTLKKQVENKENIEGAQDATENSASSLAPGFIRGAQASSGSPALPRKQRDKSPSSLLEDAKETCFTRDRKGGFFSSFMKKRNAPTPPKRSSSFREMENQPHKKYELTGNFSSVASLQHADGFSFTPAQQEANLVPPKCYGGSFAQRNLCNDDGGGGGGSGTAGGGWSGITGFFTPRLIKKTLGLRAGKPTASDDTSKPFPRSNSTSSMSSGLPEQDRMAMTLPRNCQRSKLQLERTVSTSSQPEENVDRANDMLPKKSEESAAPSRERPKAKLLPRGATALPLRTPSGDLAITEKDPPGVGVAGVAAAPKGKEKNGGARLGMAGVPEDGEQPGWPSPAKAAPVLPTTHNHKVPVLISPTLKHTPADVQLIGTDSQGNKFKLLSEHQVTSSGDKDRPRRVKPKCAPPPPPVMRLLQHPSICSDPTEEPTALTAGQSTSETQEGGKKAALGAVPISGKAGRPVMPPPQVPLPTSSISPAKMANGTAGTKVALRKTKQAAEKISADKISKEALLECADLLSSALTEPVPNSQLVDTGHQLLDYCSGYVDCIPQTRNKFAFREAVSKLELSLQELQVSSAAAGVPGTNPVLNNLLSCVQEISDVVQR
# [1] = target: T1, receptor tyrosine kinase DDR1 (Homo sapiens, UniProt Q08345); assay: kinobeads competition binding assay in K562 cell lysate (iTRAQ mass spectrometry, Western blot); settings: at 1 µM
# T1 construct: endogenous in cells; host or cells: K562 cells / K562 cell lysate
# ABL family kinase Arg = ABL family kinase Arg (Homo sapiens, UniProt P42684); settings: at 1 µM, K562 lysate
compound,measurement,setting,value
Cc1nc(Nc2ncc(C(=O)Nc3c(C)cccc3Cl)s2)cc(N2CCN(CCO)CC2)n1 [dasatinib],competition,[1],> 50%
same,competition,ABL family kinase Arg,> 50%
